Earlier results, collected in US9910050B2, “Mutant smoothened and methods of using the same” (Curis, Inc., priority 2009, dated 2018).

Test system: Smo localization to the primary cilium
Conditions: literature reports; cited from earlier work

CC1=C2C[C@H]3[C@@H](CC=C4C[C@@H](O)CC[C@@]43C)[C@@H]2CC[C@]12O[C@@H]1C[C@H](C)CN[C@H]1[C@H]2C [cyclopamine]
ciliary accumulation of Smo in the absence of active Hh signaling: promote ciliary accumulation of Smo
